According to patent US20160176924A1, “MODIFIED PEPTIDES AS POTENT INHIBITORS OF THE PSD-95/NMDA RECEPTOR INTERACTION” (priority 2008, published 2016):

Columns and labels:
[1] = Human blood plasma stability assay; format: in vitro ADME; settings: Blood plasma half life (T1/2)
Experimental: In this assay, the half-life (T1/2) of a compound in blood plasma is measured in vitro, whereby its susceptibility to degradation by proteases, peptidases and general plasma contents is quantified.
Compounds of interest were dissolved in human blood plasma (270 μl; 3H Biomedical, Sweden, cat no 1300-1-P50) to a concentration of 0.25 mM (30 μL of 2.5 mM) and incubated at 37° C. Aliquots (30 μl) were removed at various time intervals (0, 5, 10, 20, 40, 80, 160, 320, 960, 1280, 2550, 4560 and 7240 min) and quenched with 60 μL trichloroacetic acid (aq., 5%). The aliquots were vortexed, and incubated for at least 15 min, at 4° C. prior to centrifugation at 18,000 g for 2 min and the supernatant was analyzed by RP-HPLC to quantify the remaining compound (absorbance at 218 nm).

[2] = target: T1, PDZ2 of PSD-95 (Homo sapiens, UniProt P78352); assay: FP heterologous competition binding assay; settings: for Ki: FP competition, mean ± SEM, NA = no activity/affinity
T1 construct: PDZ2 (residues 155-249); made in house; host or cells: E. coli BL21-DE3 pLysS
Excerpt: (§1) Determined IC50 values may be converted to Ki values.^5 Suitable fluorophores include either 5-FAM or Cy5, which may be coupled to a tripeptide (KSG or CSG) linker attached to the N-terminus of the undecapeptide, to give 5-FAM-NR2B, Cy5-NR2B, 5-FAM-CRIPT and Cy5-CRIPT. The 5-FAM fluorophore may be attached to the undecapeptides by coupling with HATU. The Cy5 fluorophore may be conjugated to the undecapeptides by coupling Cy5-maleimide to the cysteine side chain of the tripeptide sequence CSG attached to the N-terminus of the peptide, as detailed in the Methodology section.
(§2) To measure the affinities between non-fluorescent peptides and PDZ domains, heterologous competition bindings assay were performed. This was done by adding increasing concentrations of peptide to a fixed concentration of Cy5-NR2B, 5-FAM-NR2B, Cy5-CRIPT or 5-FAM-CRIPT (50 nM) and PDZ (20 μM for PDZ1, 3 μM for PDZ2 and 1-2 and 5 μM for PDZ3) in the same TBS buffer and conditions as described above. FP values were then fitted to the general equation: Y=Bottom+(Top−Bottom)/[1[…](10̂^X-logIC50)], where X is the logarithmic value of peptide concentration. Hereby the IC50 value was obtained, which is used to calculate the theoretical competitive inhibition constant, Ki.^5
(§3) A convenient and reliable way to examine interactions between peptide analogues and PDZ domains is by using a fluorescence polarization (FP) assay. The three PDZ domains, PDZ1-3, of PSD-95 were expressed individually as set out above, while PDZ1-2 was also expressed as a tandem construct. […] IC50 values were then converted to Ki values.^5

[3] = target: T2, PDZ1-2 tandem of PSD-95 (Homo sapiens, UniProt P78352); assay: FP heterologous competition binding assay; settings: mean ± SEM
T2 construct: PDZ1-2 (residues 61-249) tandem; made in house; host or cells: E. coli BL21-DE3 pLysS
Excerpt: as §1, §2, §3

[4] = target: T3, PDZ1 of PSD-95 (Homo sapiens, UniProt P78352); assay: FP heterologous competition binding assay
T3 construct: PSD-95 PDZ1 (residues 61-151); made in house; host or cells: E. coli BL21-DE3 pLysS
Excerpt: as §1, §2, §3

[5] = target: T1, PDZ2 of PSD-95; assay: Isothermal titration calorimetry (ITC); format: binding; settings: 25° C., PBS pH 7.4; mean ± SEM
Excerpt: (§4) This technique (Pierce, M. et al., 1999., Methods, p. 213-221) provides an exact determination of the affinity of a ligand for its target protein, as well as measuring the thermodynamic properties of the interaction, including enthalpy (ΔH), entropy (ΔS) and free energy (ΔG) together with the stoichiometric relationship of ligand binding. In this method, un-labeled ligand is titrated into a solution of un-labeled PDZ protein located in the calorimeter. Heat generated upon protein recognition is measured (ΔH) during the titration of the ligand and the PDZ protein until saturation is achieved, and the heat-exchange upon further ligand addition is negligible. Based on the amount of ligand needed to achieve saturation an affinity constant (Kd) is calculated and in addition ΔH, ΔS, ΔG and stoichiometry are determined.
(§5) Calorimetry experiments were performed on a microcalorimeter (Microcal, MA, USA). The ligands were titrated directly into the PDZ solution. […] The concentration of peptide and PDZ in solution was quantified by amino acid analysis. […] The analysed solution was stirred at 1000 rpm, with a reference power of 6 μcal/s. Heats of dilution were initially determined by titrating the ligand into buffer and subtracting these baseline values from the observed “heat values”. […]

[6] = target: T4, PDZ1-2 of PSD-95 (Homo sapiens, UniProt P78352); assay: Isothermal titration calorimetry (ITC); format: binding; settings: 25° C., PBS pH 7.4; mean ± SEM; read-out: ITC Kd PDZ12
T4 construct: PDZ1-2 (residues 61-249) tandem; made in house; host or cells: E. coli BL21-DE3 pLysS
Excerpt: as §4, §5

half-life at […] [1] [min] | Ki [2] [µM] | Ki [3] [µM] | affinity to PDZ2, in words ([2]; FP assay) | affinity to PDZ1, in words [4] | Kd [5] [µM] | Kd [6] [µM] | SMILES
17 to 55 | 16 ± 0.33 | 18 ± 0.47 | – | – | – | – | CC[C@H](C)[C@H](N)C(=O)N[C@@H](C)C(=O)N[C@H](C(=O)N[C@@H](C)C(=O)N[C@H](C(=O)O)C(C)C)[C@@H](C)O [IATAV (86), IATAV]
– | 3.1 ± 0.15 | – | without losing affinity | without losing affinity | 2.6 ± 0.19 | – | CC[C@H](C)[C@H](N)C(=O)N[C@@H](CCC(=O)O)C(=O)N[C@@H](CO)C(=O)N[C@@H](CC(=O)O)C(=O)N[C@H](C(=O)O)C(C)C [IESDV (7), IESDV]
– | 1.7 ± 0.2 | 2.5 ± 0.13 | – | – | – | 1.9 ± 0.11 | CC[C@H](C)[C@H](N)C(=O)N[C@@H](CCC(=O)O)C(=O)N[C@H](C(=O)N[C@@H](C)C(=O)N[C@H](C(=O)O)C(C)C)[C@@H](C)O [IETAV (82), IETAV]
